According to patent publication US7790365B2, “Assays for modulators of parkin activity using S5a as a parkin substrate” (Elan Pharma International Limited, priority 2007, dated 2010):
Entries after “also recorded” stand apart in the source; their conditions may differ.

Legend:
S5a [1] = assay: thermal denaturation of E3 ligases (S5a ubiquitination after pre-incubation); format: biochemical
Procedure: To characterize the thermal denaturation properties E3 ligases, the E3 was pre-incubated for 90 minutes at a temperature ranging from 4° C. to 60° C. (Mdm2 and Nedd4 at 4, 37, 45, 50 and 60° C.; Murf1 at 4, 37, 50, 60, 70 and 80° C.; E6AP at 37, 39, 41, 43, and 45° C. At 90 minutes, a pre-mix was made containing 50 nM E1, 1 mM Mg-ATP, 5 μM UbcH7 (UbcH5a for Mdm2 and Murf1), 200 nM ubiquitin and 200 nM S5a. The pre-mix was added to 0.2 mg/mL of E3 ligase and incubated at 37° C. for 60 minutes. Samples were run on SDS-PAGE and assessed by Western blotting using monoclonal antibody to S5a (BioMol).

S5a [2] = assay: ubiquitination assay of E3 ligases using S5a as the substrate; format: biochemical; details: 0.2 mg/mL E3, 200 nM S5a, 1 hour at 37° C., Western blot
Procedure: For each E3 ligase, a ubiquitination assay using S5a as the substrate was carried out. Briefly, the ubiquitination reaction contained 50 nM E1, 1 mM MgATP, 5 μM UbcH7, 0.2 mg/mL E3, 200 nM ubiquitin, and 200 nM S5a. Ubiquitination reactions were incubated for 1 hour at 37° C. and samples were taken at time 0, 30′ and 60′. Samples were run on SDS-PAGE, transferred to immobilon and Western blotted using monoclonal antibody to S5a (BioMol).

GST-Mdm2: GST fusion of p53-binding protein Mdm2, RING E3 ligase
S5a ubiquitination activity after thermal pre-incubation (S5a [1]; E3 pre-incubated 90 minutes at 4, 37, 45, 50 and 60° C.): full activity even after pre-incubation at 60 °C; also recorded: retain activity even after pre-incubation at 60 °C
Thermal Denaturation Temperature (temperature at which approximately 50% of activity was lost) (S5a [1]; E3 pre-incubated 90 minutes at 4° C. to 60° C., then S5a ubiquitination 60 minutes at 37° C.): >60 °C
Ubiquitinated S5a? (S5a [2]): Yes
